Test results published in article PMC9926490, “Structural Basis for Cyclosporin Isoform-Specific Inhibition of Cyclophilins from Toxoplasma gondii” (ACS Infectious Diseases, 2023).

Amino acid sequences for entries named in this document (tags omitted).
UniProt P62937, whole entry: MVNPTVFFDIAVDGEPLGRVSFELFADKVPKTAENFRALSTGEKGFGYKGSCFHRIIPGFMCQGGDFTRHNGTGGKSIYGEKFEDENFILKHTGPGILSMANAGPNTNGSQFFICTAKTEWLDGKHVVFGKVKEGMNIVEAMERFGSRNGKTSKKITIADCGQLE

Biological target: cyclosporin A (CsA)
Experiment: ITC; CsA at 8-20 uM in the cell titrated with 66-400 uM Cyp, 20 °C, 50 mM Hepes pH 8.0, 100 mM NaCl, 0.4% ethanol; one set of sites; apparent Kd; N set to 1 for TgCyp18.4

“human cyclophilin A (CypA) (from UniProt P62937 1-165) (enzyme)” was tested, and the dH was -10700 kJ mol^–1.
